The list shows a part of the results, in another mix than the full data. Calls of active or inactive are those of the source. Calls come from the whole dose curve; as a rule, active = well fitted inhibition curve with a large enough effect; inconclusive = small, poorly fitted or top-dose-only effect; inactive = no such curve, though single readings can be large or run the other way. Entries that show only a call come without a potency.
Potency is the fitted concentration of half-maximal effect.

Protein sequences, listed by entry. Tags and fused reporters are not part of them.
UniProt Q14191, whole entry, looked up: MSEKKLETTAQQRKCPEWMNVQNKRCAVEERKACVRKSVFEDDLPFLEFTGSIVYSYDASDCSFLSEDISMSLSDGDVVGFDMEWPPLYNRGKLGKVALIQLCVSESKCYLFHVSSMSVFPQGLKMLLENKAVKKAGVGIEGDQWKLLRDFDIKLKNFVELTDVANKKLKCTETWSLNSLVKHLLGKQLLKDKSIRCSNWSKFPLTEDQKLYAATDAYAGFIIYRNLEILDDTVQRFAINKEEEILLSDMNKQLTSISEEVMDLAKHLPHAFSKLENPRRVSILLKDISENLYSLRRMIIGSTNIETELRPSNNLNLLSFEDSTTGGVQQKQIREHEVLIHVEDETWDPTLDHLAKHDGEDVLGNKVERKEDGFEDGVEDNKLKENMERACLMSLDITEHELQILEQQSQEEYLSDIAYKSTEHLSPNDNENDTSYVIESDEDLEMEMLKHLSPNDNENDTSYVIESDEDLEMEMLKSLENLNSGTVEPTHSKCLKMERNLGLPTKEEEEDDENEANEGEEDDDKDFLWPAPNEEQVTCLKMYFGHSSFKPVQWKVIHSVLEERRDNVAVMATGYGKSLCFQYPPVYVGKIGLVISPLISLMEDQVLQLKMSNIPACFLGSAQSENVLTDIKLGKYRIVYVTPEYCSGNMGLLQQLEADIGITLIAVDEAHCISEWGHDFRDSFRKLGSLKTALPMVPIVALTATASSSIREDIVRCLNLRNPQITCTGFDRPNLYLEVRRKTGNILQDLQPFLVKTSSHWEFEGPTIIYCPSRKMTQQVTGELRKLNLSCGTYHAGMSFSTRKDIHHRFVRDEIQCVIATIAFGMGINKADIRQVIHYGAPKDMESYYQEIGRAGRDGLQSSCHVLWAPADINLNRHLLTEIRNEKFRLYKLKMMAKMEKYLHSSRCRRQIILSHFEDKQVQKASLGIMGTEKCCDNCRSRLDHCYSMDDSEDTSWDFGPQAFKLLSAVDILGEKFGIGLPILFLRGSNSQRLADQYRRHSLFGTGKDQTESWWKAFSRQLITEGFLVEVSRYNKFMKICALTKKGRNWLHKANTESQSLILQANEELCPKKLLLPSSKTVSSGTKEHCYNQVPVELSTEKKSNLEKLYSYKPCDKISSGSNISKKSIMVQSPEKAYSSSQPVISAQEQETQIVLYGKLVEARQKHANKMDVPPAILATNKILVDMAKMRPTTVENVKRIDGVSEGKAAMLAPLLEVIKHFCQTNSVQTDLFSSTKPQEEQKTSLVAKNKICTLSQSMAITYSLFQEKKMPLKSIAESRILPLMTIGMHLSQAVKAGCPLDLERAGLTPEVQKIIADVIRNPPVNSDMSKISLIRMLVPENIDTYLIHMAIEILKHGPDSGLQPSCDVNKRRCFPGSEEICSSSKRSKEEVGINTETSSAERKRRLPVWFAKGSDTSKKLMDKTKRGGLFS

The target of the assay is Bifunctional 3'-5' exonuclease/ATP-dependent helicase WRN (Homo sapiens) (UniProt Q14191). The assay can be described thus: qHTS for Inhibitors of WRN Helicase. Note: nearly all actives have a fitted effect of over 55% in size. Conditions: WRN helicase unwinding, fluorescent forked duplex, kinetic; series mostly up to 114 µM. The source says:
Inhibition of DNA repair is proposed as a strategy for combating cancer. Synthetic lethality is an approach that exploits preexisting DNA repair deficiencies in certain tumors to develop inhibitors of DNA repair pathways that compensate for the tumor-associated DNA repair deficiency. Because helicases play critical roles in the DNA damage response and in DNA repair, particularly in actively dividing and replicating cells, characterization of synthetic lethal relationships of DNA helicases may be of value in developing improved anticancer treatment strategies; moreover, small molecules that specifically target a given DNA helicase may be useful for understanding its role in cellular nucleic acid metabolism. The goal of this project is to identify small molecule, non-covalent chemical inhibitors of the Werner syndrome (WS) helicase (WRN), which plays an important role in cell proliferation, the replication stress response, and DNA repair. […] The WRN gene product that is defective in the chromosomal instability disorder has DNA helicase and exonuclease activities and interacts with a number of nuclear proteins to maintain genomic stability. We will employ an optimized high-throughput screening assay that utilizes a fluorescence intensity modulation scheme with a fluorophore and quencher positioned near one another within a duplex deoxyoligonucleotide that contains a single forked structure. After a high-throughput screen of the ~350,000-member Molecular Libraries Small Molecule Repository (MLSMR) collection, followed by data analysis and hit selection, a panel of confirmatory, as well as secondary and ternary, assays will be employed to identify high-confidence WRN inhibitors. Structure-activity relationships will be investigated for the top candidate inhibitor series through medchem expansion. These are the results of the primary screening campaign against the MLSMR. NIH Chemical Genomics Center [NCGC] NIH Molecular Libraries Probe Centers Network [MLPCN] MLPCN Grant: MH096530 Assay Submitter (PI): Robert Brosh, National Institute of Aging
Three muL of reagents (buffer in columns 3 and 4 as negative controls; WRN at 20 nM final concentration in columns 1 and 2 as positive controls; columns 5-48 as test reactions) will be dispensed into a 1536-well Greiner black plate via solenoid-valve based nanoliter dispensers. Compounds (23 nL each in columns 5-48) and control (23 nL each in column 2 as dose-response) will be transferred via a Kalypsys pintool equipped with a 1536-pin array. Plates will be incubated for 15 min at room temperature, and then 1 µL of substrate (100 nM forked duplex oligonucleotide and 2 mM ATP final concentrations) will be added to start reaction, and plate will be transferred into a ViewLux high-throughput CCD imager where reaction progress is measured in kinetic mode using standard red-fluorescence optics (excitation filter 525 nm, emission filter 598 nm).
For the compound `CN(CCCl)Cc1cc(Cl)c(NC2=NCCN2)c(Cl)c1`, the Potency entry was “inactive”. Turning to `CCOP(=O)(Nc1ccc(C)cn1)OCC`, the Potency result was “inactive”. Turning to `O=P1(Nc2ccccn2)COc2ccccc2OC1`, the Potency entry is “inactive”.

Consider `CCC1=CC2Cc3nc4ccc(Cl)cc4c(N)c3C(C1)C2` (centres undefined), for which the Potency result is “inactive”. For `CCOP(=O)(NC(=NC(C)c1ccccc1)NC(C)c1ccccc1)OCC` (centres undefined), the Potency result was “inactive”.

In the case of `O=P1(N(CCCl)CCCl)NCCC(C(F)(F)F)O1` (centres undefined), the Potency result is “inactive”. Turning to `Clc1n[nH]nc1-c1nn[nH][15n]1`, the Potency result is “inactive”. Still for that read-out and setting: in the case of `CC(C)(C)C(=O)NC(Sc1ncccn1)C(Cl)(Cl)Cl` (centres undefined) it was “inactive”; in that of `COc1ccccc1CNC(=O)COC(=O)C(O)(c1ccccc1)c1ccccc1`, “inactive”.

As to `CC1(CBr)Cn2c(nc3ccccc3c2=O)S1` (centres undefined), the Potency result is “inactive”. `CC(C)/C=N\N=C(\N)N[N+](=O)[O-]`: the Potency entry is “inactive”. On to `CN(C(=O)Cc1ccc(Cl)c(Cl)c1)[C@@H]1CCCC[C@H]1N1CCCC1`, for which the Potency result was “inactive”. Consider `Cc1nn(-c2ccccc2)c2c1P(=O)(N1CCOCC1)N(C)C(c1ccccc1)=N2` (centres undefined), for which the Potency entry was “inactive”. Still for that read-out and setting: in the case of `CC1CCC(C(C)C)C(OP(=O)(Nc2ccccn2)c2ccccc2)C1` (centres undefined) it was “inactive”; in that of `Cc1ccc(C(=O)OC2CN3CCC2CC3)cc1` (centres undefined), “inactive”. For `CCCC1OP(=O)(Nc2ccccc2)OCC1CC` (centres undefined), the Potency result is “inactive”. Turning to `CN(C)C1(CNC(=O)c2ccc(S(C)(=O)=O)cc2)CCCCC1`, the Potency entry is “inactive”. Regarding `O=P1(Nc2ncccn2)COc2ccccc2OC1`, the Potency entry is “inactive”. Regarding `Cc1ccc(S(=O)(=O)N(CCCN)CCCc2c(C)nc(N)[nH]c2=O)cc1`, the Potency result was “inactive”. Consider `O=P1(Nc2ccc(Br)cn2)COc2ccccc2OC1`, for which the Potency entry was “inactive”. Take `NS(=O)(=O)c1cccc(NC(=O)COC(=O)C(O)(c2ccccc2)c2ccccc2)c1`: the Potency entry was “inactive”. As to `O=[As](O)(c1cccs1)c1cccs1`, the Potency entry was “inactive”. Still for that read-out and setting: the same measure for `Cc1ccc(OCC(=O)OC2CN3CCC2CC3)cc1` (centres undefined): “inactive”; for `Nc1cccc([As](=O)(O)c2ccccc2)c1`: “inactive”; for `CCOP1(=S)c2c(C)nn(CCC#N)c2N=C(c2ccccc2F)N1C` (centres undefined): “inactive”. As for `O=P(Nc1nccs1)(c1ccccc1)c1nc2ccccc2s1` (centres undefined), the Potency is active: 22.4 µM. Consider `O=P(Nc1nccs1)(Oc1ccccc1)Oc1ccccc1`, for which the Potency result was “inactive”.

Consider `Nc1ccccc1[As](=O)(O)c1ccccc1`, for which the Potency result is “inactive”.

Take `O=C(O)COc1ccc([As](=O)(O)O)cc1[N+](=O)[O-]`: the Potency result is “inactive”. Take `NC(=O)Nc1ccc([As](=O)(O)O)cc1`: the Potency result is “inactive”. As to `CN(C)C(=O)c1cc([N+](=O)[O-])cc2c1-c1c(cc([N+](=O)[O-])cc1[N+](=O)[O-])C2=O`, the Potency result is “inactive”. Regarding `O=[N+]([O-])c1ccc2c(c1)nnn2O`, the Potency entry was “inactive”.

As to `CN(C(=O)Cc1ccc(Cl)c(Cl)c1)[C@H]1CC[C@@]2(CCCO2)C[C@@H]1N1CCCC1`, the Potency result was “inactive”. `N#CCCN(C(=O)COC(=O)C(O)(c1ccccc1)c1ccccc1)c1ccc(F)cc1`: the Potency result was “inactive”. For the compound `CN(C(=O)Cc1ccccc1)[C@@H]1CC[C@]2(CCCO2)C[C@H]1N1CCCC1`, the Potency entry was “inactive”. As for `CCOP1(=S)c2c(C)nn(CCC#N)c2N=C(c2ccc(F)cc2)N1C` (centres undefined), the Potency entry was “inactive”.

`COc1cc(C(=O)NCC2(N3CCOCC3)CCCCC2)cc(Cl)c1OC(C)C`: the Potency entry is “inactive”. As for `O=[As](O)(O)c1cccnc1`, the Potency result was “inactive”.

In the case of `CS(=O)(=O)c1ccc(Cl)c(NC(=O)COC(=O)C(O)(c2ccccc2)c2ccccc2)c1`, the Potency entry is “inactive”. Same read-out and setting: in the case of `O=C(OC1CN2CCC1CC2)c1ccc(Cl)cc1` (centres undefined) it was “inactive”. The same measure, in the same setting: the same measure for `O=[As](O)(c1cccc(O)c1)c1cccc(O)c1`: “inactive”; for `Cc1cccc(OCC(=O)OC2CN3CCC2CC3)c1` (centres undefined): “inactive”; for `CCCOP(=S)(Nc1nc(N)cc(=O)[nH]1)OCCC`: “inactive”.

For `Nc1cccc2c([As](=O)(O)O)cccc12`, the activity change, negative = inhibition was inactive: -7.97% [at 11.6 µM].

For the compound `Cc1ccc(NCCc2c([N+](=O)[O-])cc([N+](=O)[O-])cc2[N+](=O)[O-])cc1`, the Potency result is “inactive”. Consider `COc1cc(C2NCCC3(OCCO3)C2(C)C)cc(OC)c1OC` (centres undefined), for which the Potency entry is “inactive”. Still for that read-out and setting: in the case of `CCOP(=O)(Nc1cccc2ccccc12)OCC` it was “inactive”; in that of `O=C(OC1CN2CCC1CC2)C12CC3CC(CC(C3)C1)C2` (centres undefined), “inactive”. As to `Cc1cc(=O)[nH]c(N[N+](=O)[O-])n1`, the Potency entry is “inactive”. For the compound `Cc1c2c(nc3ccccc13)SC(C(Cl)Cl)C2` (centres undefined), the Potency entry was “inactive”. With `COc1ccc2nc(NP(=O)(c3ccccc3)c3ccccc3)sc2c1`, the Potency entry was “inactive”.

Consider `COc1cc(I)ccc1[As](=O)(O)O`, for which the Potency result was “inactive”. In the case of `O=P1(N(CCCl)CCCl)OCCCN1CCCl` (centres undefined), the Potency entry is “inactive”. Take `O=P1(N(CCCl)CCCl)Nc2ccccc2N1`: the Potency entry is “inactive”. On to `COc1ccc(N/C(=N/P(=O)(N2CCOCC2)N2CCOCC2)N2CCOCC2)cc1`, for which the Potency result is “inactive”. Take `O=[N+]([O-])c1cc(Oc2ccc([N+](=O)[O-])cc2C(F)(F)F)cc([N+](=O)[O-])c1`: the Potency entry is “inactive”. As for `C[As](=O)(O)c1cccc(C(=O)O)c1`, the Potency result was “inactive”. Take `O=[As](O)(c1ccc(O)cc1)c1ccccc1O`: the Potency result was “inactive”. `COc1cc(C(=O)NCC2(N3CCOCC3)CCCCC2)ccc1OCC(C)C`: the Potency result was “inactive”.

(Values after PubChem BioAssay AID651768 (National Center for Advancing Translational Sciences (NCATS), 2012).)
